Experimental data published in patent publication US4153688A, “Trifluoromethylated oligopeptides” (Delalande S.A., priority 1977, dated 1979).
Where two headings read alike, the source gives them in different places.

The chains behind the UniProt entries cited, without tags or fusion partners. Residues count along the entry.
UniProt P08246, 30-267 limits assumed: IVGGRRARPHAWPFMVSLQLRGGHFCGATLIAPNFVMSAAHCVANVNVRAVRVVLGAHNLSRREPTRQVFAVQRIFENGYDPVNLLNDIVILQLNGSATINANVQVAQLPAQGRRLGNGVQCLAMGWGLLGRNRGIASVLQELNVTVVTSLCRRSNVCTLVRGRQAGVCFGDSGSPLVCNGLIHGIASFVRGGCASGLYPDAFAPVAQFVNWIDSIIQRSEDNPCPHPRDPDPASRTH
UniProt P00772, 27-266 limits assumed: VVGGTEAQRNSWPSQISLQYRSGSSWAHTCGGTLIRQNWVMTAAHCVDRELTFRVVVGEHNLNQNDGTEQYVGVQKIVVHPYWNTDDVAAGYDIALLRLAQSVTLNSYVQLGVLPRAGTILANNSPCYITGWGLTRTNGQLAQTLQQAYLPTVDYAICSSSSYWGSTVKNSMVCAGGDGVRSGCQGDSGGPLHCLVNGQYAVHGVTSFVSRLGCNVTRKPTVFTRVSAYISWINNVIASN

Tests used:
leucocytal elastase [1] = biological target: T1, leucocytal elastase (Homo sapiens, UniProt P08246); assay: Inhibition constant KI (Dixon method) on leucocytal elastase, hydrolysis of succinyl-tri-L-alanine-paranitroanilide; conditions: read-out: K T^ (a) leucocytal; 25° C., TRIS 0.2 M buffer, pH 8; absence of any organic solvent; tested form: HCl
Text: (§1) This latter was purified according to the Travis method (Baugh, R. J. and Travis, J. (1976), Biochemistry, 15, 4, 836). The method of study used is the conventional method of Dixon (Dixon, M., (1953), Biochemical Journal, 55, 1970) for measuring the inhibition constants KI of the compounds of the invention with regard to the hydrolysis reactions of the succinyl-tri-L-alanine-paranitroanilide catalysed by the two above elastases (Bieth J., Spiess B. and Wermuth C. G. (1974) Biochemical Medicine, 11, 350). In certain cases (leucocytal elastase) the inhibitory power of the compounds studied was measured by means of the I50 concentration of these compounds inducing 50% inhibition of the hydrolysis of the succinyl-tri-alanine-paranitroanilide at a 10^-3 M concentration catalysed by the enzyme. […] All the measurements were made at 25° C. in a 0.2 Molar buffer solution of tri-hydroxymethyl-aminomethane at pH 8.
(§2) Table E below lists the results obtained for the compounds of formula (I) as well as the reference compounds (A), acetyl-L-prolyl-L-alanyl-L-prolyl-L-alaninal, for the pancreatic elastase (Thompson, R. C., Biochemistry (1973), 17, 1, 47) and (B), oleic acid, for the leucocytal elastase (Ashe, B. M. and Zimmerman, M. (1977), Biochem. Biophys. Res. Comm., 75, 194).

leucocytal elastase [2] = biological target: T1, leucocytal elastase; assay: I50 on leucocytal elastase, hydrolysis of succinyl-tri-alanine-paranitroanilide at 10^-3 M; conditions: read-out: T 50^ (b) leucocytal, 25° C., TRIS 0.2 M buffer, pH 8, substrate 10^-3 M, in the presence of 50 % dimethylformamide (footnote)
Text: as §1

[3] = biological target: porcine pancreatic elastase (Sus scrofa, UniProt P00772); assay: Inhibition constant KI (Dixon method) on pancreatic elastase, hydrolysis of succinyl-tri-L-alanine-paranitroanilide; conditions: read-out: K T^ (a) pancreatic, 25° C., TRIS 0.2 M buffer, pH 8, absence of any organic solvent
Text: as §1, §2

Row | SMILES | Ki (leucocytal elastase [1]) [nM] | IC50 (leucocytal elastase [2]; tested form: HCl) [nM] | Ki ([3]; tested form: HCl) [nM] | IC50 (leucocytal elastase [2]; tested form: 2HCl) [nM] | Ki ([3]; tested form: 2HCl) [nM]
1 | C[C@H](NC(=O)[C@H](CCCCN)NC(=O)C(F)(F)F)C(=O)Nc1ccc(N(C)C)cc1 | 700 | 4800 | 70 |  | 
2 | NCCCC[C@H](NC(=O)[C@H](CCCCN)NC(=O)C(F)(F)F)C(=O)Nc1ccc(C(F)(F)F)cc1 |  |  |  | 140000 | 150
